These results are taken from paper PMC6079455, “Discovery of Novel Caeridins from the Skin Secretion of the Australian White's Tree Frog, Litoria caerulea” (International Journal of Genomics, 2018).

As usually defined, the MBC is the smallest concentration meeting the test's criterion for killing. For orientation: MIC means the least concentration at which growth counts as inhibited.

In this assay the test system is E. coli NCTC10418. Nature of the assay: Antimicrobial test (broth microdilution). It counts as cell-based, Escherichia coli. Here is the method:
The antimicrobial activities were tested by the broth microdilution method and evaluated by the determination of MIC values against different tested microorganisms, the Gram-positive bacteria, S. aureus (NCTC 10788), E. faecalis (NCTC12697), and MRSA (NCTC 12493); the Gram-negative bacterium, E. coli (NCTC 10418); and the yeast, C. albicans (NCYC 1467). The microorganisms were cultured to their log phase in MHB and diluted to 5 × 10^5 CFU/ml then subsequently treated with peptide solutions of gradient concentrations. After incubation at 37°C overnight, the growth of microorganisms was detected at a wavelength of 550 nm using a Synergy HT plate reader (Biolise BioTek ELx808, Winooski, VT, USA). The MICs were determined as the lowest concentration of peptide where […].
Background: Dilution methods test growth across graded concentrations, often in twofold steps.

Regarding `CC[C@H](C)[C@H](NC(=O)CN)C(=O)NCC(=O)N[C@@H](C)C(=O)N[C@H](C(=O)N[C@@H](CC(C)C)C(=O)N[C@@H](CCCCN)C(=O)N[C@H](C(=O)N[C@@H](CC(C)C)C(=O)N[C@H](C(=O)N[C@H](C(=O)NCC(=O)N[C@@H](CC(C)C)C(=O)N1CCC[C@H]1C(=O)N[C@@H](C)C(=O)N[C@@H](CC(C)C)C(=O)N[C@H](C(=O)N[C@@H](CO)C(=O)N[C@@H](Cc1c[nH]c2ccccc12)C(=O)N[C@H](C(=O)N[C@@H](CCCCN)C(=O)N[C@@H](CCCNC(=N)N)C(=O)N[C@@H](CCCCN)C(=O)N[C@@H](CCCNC(=N)N)C(=O)N[C@@H](CCC(N)=O)C(=O)N[C@@H](CCC(N)=O)C(N)=O)[C@@H](C)CC)[C@@H](C)CC)[C@@H](C)O)[C@@H](C)O)C(C)C)C(C)C` [Melittin, reference compound], the MBC was determined as 8 µM. The MIC (MHB, 5 × 10^5 CFU/ml, 37°C overnight, 550 nm) stood at 4 µM.
